This is an account of results in patent US9777004B2, “Amino-substituted imidazopyridazines” (Bayer Intellectual Property GmbH, priority 2012, dated 2017).

The chains behind the UniProt entries cited, without tags or fusion partners. A line that says so, or that is headed by a name, gives the form on record, which may keep a tag or linker.
UniProt Q9BUB5, other isoform, or with tags, fused parts or gaps T344D: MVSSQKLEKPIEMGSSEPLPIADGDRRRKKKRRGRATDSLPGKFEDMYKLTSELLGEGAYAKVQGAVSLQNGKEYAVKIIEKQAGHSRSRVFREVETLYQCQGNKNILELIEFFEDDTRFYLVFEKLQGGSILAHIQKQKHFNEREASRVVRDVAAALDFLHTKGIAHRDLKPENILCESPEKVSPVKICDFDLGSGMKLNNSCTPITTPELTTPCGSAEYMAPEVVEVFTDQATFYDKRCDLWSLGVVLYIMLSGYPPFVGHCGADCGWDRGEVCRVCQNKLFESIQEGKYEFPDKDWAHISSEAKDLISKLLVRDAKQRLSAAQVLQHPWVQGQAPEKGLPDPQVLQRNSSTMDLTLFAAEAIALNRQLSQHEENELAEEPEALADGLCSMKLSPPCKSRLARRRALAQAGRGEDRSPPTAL

Experiment [1] addresses T1, human full-length MKNK1 (Homo sapiens (Human), UniProt Q9BUB5, T344D). The experiment in a line: MKNK1 kinase high ATP assay (TR-FRET). In kind it is biochemical. Particulars: 2 mM ATP, 15 min preincubation. The procedure: MKNK1 Kinase High ATP Assay
MKNK1-inhibitory activity at high ATP of compounds of the present invention after their preincubation with MKNK1 was quantified employing the TR-FRET-based MKNK1 high ATP assay as described in the following paragraphs.
As substrate for the kinase reaction the biotinylated peptide biotin-Ahx-[…] (C-terminus in amide form) was used, which can be purchased e.g. from the company Biosyntan (Berlin-Buch, Germany).
(§1) For the assay 50 nL of a 100fold concentrated solution of the test compound in DMSO was pipetted into a black low volume 384well microtiter plate (Greiner Bio-One, Frickenhausen, Germany), 2 μL of a solution of MKNK1 in aqueous assay buffer [50 mM HEPES pH 7.5, 5 mM magnesium chloride, 1.0 mM dithiothreitol, 0.005% (v/v) Nonidet-P40 (Sigma)] was added and the mixture was incubated for 15 min at 22° C. to allow pre-binding of the test compounds to the enzyme before the start of the kinase reaction. Then the kinase reaction was started by the addition of 3 μL of a solution of adenosine-tri-phosphate (ATP, 3.3 mM=>final conc. in the 5 μL assay volume is 2 mM) and substrate (0.1 μM=>final conc. in the 5 μL assay volume is 0.06 μM) in assay buffer and the resulting mixture was incubated for a reaction time of 30 min at 22° C. The concentration of MKNK1 was adjusted depending of the activity of the enzyme lot and was chosen appropriate to have the assay in the linear range, typical concentrations were in the range of 0.003 μg/mL. The reaction was stopped by the addition of 5 μL of a solution of TR-FRET detection reagents (5 nM streptavidine-XL665 [Cisbio Bioassays, Codolet, France] and 1 nM anti-ribosomal protein S6 (pSer236)-antibody from Invitrogen [#44921G] and 1 nM LANCE EU-W1024 labeled ProteinG [Perkin-Elmer, product no. AD0071]) in an aqueous EDTA-solution (100 mM EDTA, 0.1% (w/v) bovine serum albumin in 50 mM HEPES pH 7.5).
(§2) The resulting mixture was incubated for 1 h at 22° C. to allow the formation of complex between the phosphorylated biotinylated peptide and the detection reagents. Subsequently the amount of phosphorylated substrate was evaluated by measurement of the resonance energy transfer from the Eu-chelate to the streptavidine-XL. Therefore, the fluorescence emissions at 620 nm and 665 nm after excitation at 350 nm were measured in a TR-FRET reader, e.g. a Rubystar (BMG Labtechnologies, Offenburg, Germany) or a Viewlux (Perkin-Elmer). The ratio of the emissions at 665 nm and at 622 nm was taken as the measure for the amount of phosphorylated substrate.

Experiment [2] concerns the target T1, human full-length MKNK1. The experiment in a line: MKNK1 kinase assay (TR-FRET). The format is biochemical. The conditions noted are these: 10 μM ATP, 15 min preincubation. The procedure: MKNK1-inhibitory activity of compounds of the present invention was quantified employing the MKNK1 TR-FRET assay as described in the following paragraphs.
As substrate for the kinase reaction the biotinylated peptide biotin-Ahx-[…] (C-terminus in amide form) was used which can be purchased e.g. form the company Biosyntan (Berlin-Buch, Germany).
as §1, with “16.7 μM=>final” for “3.3 mM=>final”, “10 μM)” for “2 mM)”, “45” for “30”, “0.05” for “0.003”
as §2

As for `c1ccc2oc(-c3cnc4ccc(OCC[C@@H]5COCCN5)nn34)cc2c1` [Example 8, 3-(1-Benzofuran-2-yl)-6-{2-[(3R)-morpholin-3-yl]ethoxy}imidazo[1,2-b]pyridazine], the IC50 – broadly, the concentration needed to halve the response being measured – stood at 20 nM at human full-length MKNK1 [1] and 6 nM on human full-length MKNK1 [2].
As to `c1ccc2oc(-c3cnc4ccc(OCCC5CNCCO5)nn34)cc2c1` (stereo not drawn) [Example 1, 3-(1-Benzofuran-2-yl)-6-[2-(morpholin-2-yl)ethoxy]imidazo[1,2-b]pyridazine], the results for the IC50 on human full-length MKNK1 [1] and on human full-length MKNK1 [2] were 6 nM and 4 nM, respectively.
Regarding `c1ccc2oc(-c3cnc4ccc(OCC5CNCCO5)nn34)cc2c1` (stereo not drawn) [Example 3, 3-(1-Benzofuran-2-yl)-6-(morpholin-2-ylmethoxy)imidazo[1,2-b]pyridazine], the values for the half-inhibitory concentration (IC50) on human full-length MKNK1 [1] and at human full-length MKNK1 [2] were 12 nM and 4 nM, respectively.
`Fc1ccc2oc(-c3cnc4ccc(OC[C@H]5CNCCO5)nn34)cc2c1` [Example 34, 3-(5-Fluoro-1-benzofuran-2-yl)-6-[(2R)-morpholin-2-ylmethoxy]imidazo[1,2-b]-pyridazine]: the IC50 was 11 nM against human full-length MKNK1 [1] and 10 nM at human full-length MKNK1 [2].
With `c1ccc2oc(-c3cnc4ccc(O[C@@H]5CCCNC5)nn34)cc2c1` [Example 32, 3-(1-Benzofuran-2-yl)-6-[(3R)-piperidin-3-yloxy]imidazo[1,2-b]pyridazine], the IC50 was 53 nM against human full-length MKNK1 [1] and 28 nM at human full-length MKNK1 [2].
With `c1ccc2oc(-c3cnc4ccc(OC[C@H]5CNCCO5)nn34)cc2c1` [Example 7, 3-(1-Benzofuran-2-yl)-6-[(2R)-morpholin-2-ylmethoxy]imidazo[1,2-b]pyridazine], the IC50 on human full-length MKNK1 [1] came out at 19 nM. This lies in the double-digit nanomolar range.
As for `c1ccc2oc(-c3cnc4ccc(OC5CCCNC5)nn34)cc2c1` (stereo not drawn) [Example 22, 3-(1-Benzofuran-2-yl)-6-(piperidin-3-yloxy)imidazo[1,2-b]pyridazine], the results for the IC50 on human full-length MKNK1 [1] and against human full-length MKNK1 [2] were 53 nM and 25 nM, respectively.
The matching figures for `c1ccc2oc(-c3cnc4ccc(OCC[C@H]5COCCN5)nn34)cc2c1` [Example 13, 3-(1-Benzofuran-2-yl)-6-{2-[(3S)-morpholin-3-yl]ethoxy}imidazo[1,2-b]pyridazine]: 25 nM and 9 nM.
As for `COc1ccc2oc(-c3cnc4ccc(OC[C@H]5CNCCO5)nn34)cc2c1` [Example 5, 3-(5-Methoxy-1-benzofuran-2-yl)-6-[(2R)-morpholin-2-ylmethoxy]imidazo[1,2-b]pyridazine], the 50% inhibitory concentration (IC50) against human full-length MKNK1 [1] was 18 nM.
As to `CC(C)NCCOc1ccc2ncc(-c3cc4ccccc4o3)n2n1` [Example 10, N-(2-{[3-(1-Benzofuran-2-yl)imidazo[1,2-b]pyridazin-6-yl]oxy}ethyl)propan-2-amine], the half-maximal inhibitory concentration (IC50) amounted to 23 nM against human full-length MKNK1 [1] and 8 nM on human full-length MKNK1 [2].
Take `c1ccc2oc(-c3cnc4ccc(OCC5CCCCN5)nn34)cc2c1` (stereo not drawn) [Example 16, 3-(1-Benzofuran-2-yl)-6-(piperidin-2-ylmethoxy)imidazo[1,2-b]pyridazine]: the IC50 against human full-length MKNK1 [1] was found to be 32 nM; on human full-length MKNK1 [2], 16 nM.
In the case of `c1ccc2oc(-c3cnc4ccc(OC[C@@H]5CNCCO5)nn34)cc2c1` [Example 11, 3-(1-Benzofuran-2-yl)-6-[(2S)-morpholin-2-ylmethoxy]imidazo[1,2-b]pyridazine], the IC50 at human full-length MKNK1 [1] was 24 nM; against human full-length MKNK1 [2] it was 12 nM.
As to `CC(C)CNCC(Oc1ccc2ncc(-c3cc4ccccc4o3)n2n1)c1ccccc1` (stereo not drawn) [Example 28, N-(2-{[3-(1-Benzofuran-2-yl)imidazo[1,2-b]pyridazin-6-yl]oxy}-2-phenylethyl)-2-methylpropan-1-amine], the IC50 on human full-length MKNK1 [1] is 114 nM; against human full-length MKNK1 [2], 59 nM.
